Measured values published in PubChem BioAssay AID504326 (The Scripps Research Institute Molecular Screening Center, 2011).
The entries are a selection whose mix differs from that of the whole data set. Some tests of the compounds listed are not included; inactive here does not mean inactive elsewhere. Activity calls are given as the source filed them. No stated cut-off is given here; in the data, active means activation above about 18%; inactive means the rest.

The chains behind the UniProt entries cited, without tags or fusion partners.
UniProt P35372, whole entry, looked up: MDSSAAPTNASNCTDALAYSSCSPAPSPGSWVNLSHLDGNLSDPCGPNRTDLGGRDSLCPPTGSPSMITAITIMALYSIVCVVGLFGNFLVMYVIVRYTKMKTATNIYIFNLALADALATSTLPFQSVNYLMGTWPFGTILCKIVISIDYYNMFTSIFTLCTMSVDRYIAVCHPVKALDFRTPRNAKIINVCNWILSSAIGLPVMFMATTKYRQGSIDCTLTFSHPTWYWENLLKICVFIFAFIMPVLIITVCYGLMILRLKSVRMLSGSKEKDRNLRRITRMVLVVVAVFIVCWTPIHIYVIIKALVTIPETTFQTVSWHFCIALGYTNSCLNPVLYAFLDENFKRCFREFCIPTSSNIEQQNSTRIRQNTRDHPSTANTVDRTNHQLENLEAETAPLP
UniProt P41143, whole entry, looked up: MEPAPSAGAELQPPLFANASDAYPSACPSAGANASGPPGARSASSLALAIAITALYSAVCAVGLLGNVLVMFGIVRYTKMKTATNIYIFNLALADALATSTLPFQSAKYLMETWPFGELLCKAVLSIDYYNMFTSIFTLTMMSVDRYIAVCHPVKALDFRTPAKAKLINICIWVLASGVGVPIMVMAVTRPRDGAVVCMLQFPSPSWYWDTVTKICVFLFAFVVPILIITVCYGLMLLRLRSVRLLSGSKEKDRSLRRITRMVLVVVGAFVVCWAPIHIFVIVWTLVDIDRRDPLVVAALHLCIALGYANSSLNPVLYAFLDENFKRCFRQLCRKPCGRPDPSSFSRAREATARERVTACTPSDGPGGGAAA

What follows are molecules tested against Mu-type opioid receptor (Homo sapiens) + Delta-type opioid receptor (Homo sapiens) (UniProt P35372+P41143) (assay: agonists of OPRM1-OPRD1 heterodimerization, primary screen, cell-based, luminescence (AID 504326;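 further: 0% = vehicle-treated cells and 100% = reference agonist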)). Conditions: cells, at 9.3 µM, active compounds read high.

| Compound | activation |
| --- | --- |
| O=C(OC1CN2CCC1CC2)C(CO)(c1ccccc1)c1ccccc1 (stereo not drawn) | inactive: -0.47% |
| CC(C)Oc1ccc(C(=O)NCC2(N(C)C)CCCCC2)cc1 | inactive: 10.2% |
| O=C(OCCN1CCCC1)C(O)(c1ccccc1)c1ccccc1 | inactive: -1.11% |
| CN(C)c1cccc(C(=O)NCC2(N(C)C)CCCCC2)c1 | inactive: 5.28% |
| COc1ccc(Br)c(C(=O)NCC2(N3CCCCC3)CCCCC2)c1 | inactive: -1.44% |
| COc1cc(C(=O)NCC2(N(C)C)CCCCC2)c([N+](=O)[O-])cc1OC | inactive: -1% |
| O=C(NCC1(N2CCCCC2)CCCCC1)c1cccc(Cl)c1 | inactive: 0.58% |
| COc1cccc(C(=O)NCC2(N3CCCCC3)CCCCC2)c1 | inactive: -1.96% |
| COc1ccc(Cl)cc1C(=O)NCC1(N(C)C)CCCCC1 | inactive: -2.92% |
| Cc1ccccc1C(=O)NCC1(N2CCCCC2)CCCCC1 | inactive: -2.29% |
| CN(C)C1CCCC1OC(=O)C(O)(c1ccccc1)c1ccccc1 (stereo not drawn) | inactive: -1.04% |
| COc1ccc(C(=O)NCC2(N(C)C)CCCCC2)cc1 | inactive: 3.78% |
| CCN1CCCC(OC(=O)C2(O)c3ccccc3C=Cc3ccccc32)C1 (stereo not drawn) | inactive: -2.12% |
| Cc1cc(C(=O)NCC2(N3CCCCC3)CCCCC2)ccc1[N+](=O)[O-] | inactive: -1.63% |
| O=C(NCC1(N2CCCCC2)CCCCC1)c1cccc(Br)c1 | inactive: -2.12% |
| C=CCN1CCN(CCOC(=O)C(O)(c2ccccc2)c2ccccc2)CC1 | inactive: 0.81% |
| O=C(NCC1(N2CCCCC2)CCCCC1)c1cc(F)c(F)cc1Cl | inactive: -1.04% |
| CN1[C@@H]2CC[C@H]1CC(OC(=O)C(O)(c1ccccc1)c1ccccc1)C2 (stereo partly drawn) | inactive: -2.16% |
| O=C(NCC1(N2CCCCC2)CCCCC1)c1cc([N+](=O)[O-])ccc1Cl | inactive: 0.65% |
| Cc1ccc(C(=O)NCC2(N3CCCCC3)CCCCC2)cc1 | inactive: 0.42% |
| CCN(CC)CC(C)C(C)OC(=O)C(O)(c1ccccc1)c1ccccc1 (stereo not drawn) | inactive: 0.95% |
| COc1cc(SC)ccc1C(=O)NCC1(N(C)C)CCCCC1 | inactive: -1.44% |
| CC(C)N1C(=O)CC2(CCN(CCOC(=O)C(O)(c3ccccc3)c3ccccc3)CC2)C1=O | inactive: 1% |
